We go through seven compounds from PubChem BioAssay AID373 (The Scripps Research Institute Molecular Screening Center, 2006).

Chains of the proteins cited; added tags and fusions are not shown.
UniProt Q99500, whole entry: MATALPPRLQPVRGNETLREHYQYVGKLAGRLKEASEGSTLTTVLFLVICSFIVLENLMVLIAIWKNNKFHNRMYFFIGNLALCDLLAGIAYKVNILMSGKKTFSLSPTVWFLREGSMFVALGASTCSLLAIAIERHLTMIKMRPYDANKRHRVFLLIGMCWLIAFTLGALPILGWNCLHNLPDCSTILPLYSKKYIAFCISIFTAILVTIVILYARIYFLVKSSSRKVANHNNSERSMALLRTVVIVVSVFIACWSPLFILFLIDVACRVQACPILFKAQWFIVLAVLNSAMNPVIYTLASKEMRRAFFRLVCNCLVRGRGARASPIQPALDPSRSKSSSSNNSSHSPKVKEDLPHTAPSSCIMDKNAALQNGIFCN

The list shows a part of the results, in another mix than the full data. The source made the active and inactive calls.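 How the source made its calls: active means activation above the screen-wide mean plus 3 SD (cut at about 4.5% in these data, passing the limit was not always enough); inactive means the rest, inconclusive results apart.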

The target in this assay is Sphingosine 1-phosphate receptor 3 (Homo sapiens) (UniProt Q99500). Description: human S1P3 receptor agonists, primary screen, cell-based, primary and confirmation, NFAT-BLA reporter (AID 373). Particulars: S1P3 NFAT-BLA reporter cells, agonism, FRET ratio; at 4.5 µM; active compounds read high; relative to 1 µM S1P, basal subtracted.
Consider `COc1ccc(NC2CCN(CCc3ccccc3)CC2)c(OC)c1`, for which the activation is inactive: -1.1%.

Turning to `O=C(OC1CN2CCC1CC2)C1c2ccccc2Oc2ccccc21` (configuration not stated), the activation was inactive: -0.2%.

With `N#CC1(Nc2ccccc2)CCN(CCc2ccccc2)CC1`, the activation was inactive: -0.7%.

On to `N/C(=N\O)c1c(N)no[n+]1[O-]`, for which the activation is inactive: -0.3%.

On to `CCC(CO)(C(=O)OC1CN2CCC1CC2)c1ccccc1` (configuration not stated), for which the activation was inactive: 0.4%.

Turning to `CCOc1ncccc1C(=O)NCC1(N2CCOCC2)CCCCC1`, the activation is inactive: 0.1%.

Consider `Fc1ccccc1NC1CCN(Cc2ccccc2)CC1`, for which the activation is inactive: -1.1%.
